Data published in ChEMBL document CHEMBL1130261, “Identification of novel farnesyl protein transferase inhibitors using three-dimensional database searching methods” (J Med Chem, 1997).

Protein sequences, listed by entry. Tags and fused reporters are not part of them.
UniProt P53609, whole entry, looked up: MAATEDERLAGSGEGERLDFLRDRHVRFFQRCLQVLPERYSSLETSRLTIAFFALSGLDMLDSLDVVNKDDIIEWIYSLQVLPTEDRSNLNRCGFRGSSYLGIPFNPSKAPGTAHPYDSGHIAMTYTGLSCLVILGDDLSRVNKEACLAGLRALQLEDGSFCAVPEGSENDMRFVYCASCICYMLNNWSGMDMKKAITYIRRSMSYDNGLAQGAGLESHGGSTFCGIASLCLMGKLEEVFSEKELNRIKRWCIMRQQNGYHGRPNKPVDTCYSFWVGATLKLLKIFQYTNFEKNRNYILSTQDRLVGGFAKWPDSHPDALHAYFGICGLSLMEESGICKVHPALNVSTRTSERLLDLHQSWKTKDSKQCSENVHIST

Assays:
Format in all cases: protein-complex assay
[1] = biological target: T1, Protein farnesyltransferase (Homo sapiens, UniProt P49354+P49356); experiment: Inhibitory activity against recombinant human farnesyltransferase
[2] = biological target: Protein farnesyl/geranylgeranyl transferase (Homo sapiens) (UniProt P49354+P49356+P53609); experiment: Selectivity was expressed as the ratio of the Geranylgeranyl transferase type I to FPT inhibitory activities (IC50)
[3] = biological target: T1, Protein farnesyltransferase; experiment: Inhibition of Farnesyltransferase (FPT) in FPT Ras/TCA assay
Summary of the method: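 Secondary FPT assay measuring transfer of [³H]farnesyl from [³H]farnesyl pyrophosphate to His₆-H-Ras-CVLS. Labelled protein was collected by TCA precipitation. IC50 values were obtained from this Ras/TCA format.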

Selectivity ratio [2] | IC50 [3] [µM] | SMILES | IC50 [1] [µM]
 |  | O=C(Cc1cccnc1)N1CCN(C2c3ccc(Cl)cc3CCc3cccnc32)CC1 (stereo unspecified) | 1
 |  | O=C(c1cc[n+]([O-])cc1)N1CCC(=C2c3ccc(Cl)cc3C(O)Cc3cccnc32)CC1 (stereo unspecified) | 32.7
> 8 | 5.3 | CC(=O)N1CCN(c2nc(CO[C@@H]3c4cc(C(C)(C)C)ccc4S[C@@H]3Cn3ccnc3)ns2)CC1 | 4.8
 |  | O=C(Cc1ccccn1)N1CCN(C2c3ccc(Cl)cc3CCc3cccnc32)CC1 (stereo unspecified) | 0.36
